Test results from PMC6172466 (2018).

What was measured:
[1] = target: T1, N-terminally TAMRA-labeled monoubiquitin (UniProt P0CG48 1-76, TAMRA on the N-terminus); assay: FP; slow phase
[2] = target: T1, N-terminally TAMRA-labeled monoubiquitin; assay: FP; fast phase

B1: USP4 (8-925) wild-type (enzyme)
chain: RERPDAETQKSELGPLMRTTLQRGAQWYLIDSRWFKQWKKYVGFDSWDMYNVGEHNLFPGPIDNSGLFSDPESQTLKEHLIDELDYVLVPTEAWNKLLNWYGCVEGQQPIVRKVVEHGLFVKHCKVEVYLLELKLCENSDPTNVLSCHFSKADTIATIEKEMRKLFNIPAERETRLWNKYMSNTYEQLSKLDNTVQDAGLYQGQVLVIEPQNEDGTWPRQTLQSKSSTAPSRNFTTSPKSSASPYSSVSASLIANGDSTSTCGMHSSGVSRGGSGFSASYNCQEPPSSHIQPGLCGLGNLGNTCFMNSALQCLSNTAPLTDYFLKDEYEAEINRDNPLGMKGEIAEAYAELIKQMWSGRDAHVAPRMFKTQVGRFAPQFSGYQQQDSQELLAFLLDGLHEDLNRVKKKPYLELKDANGRPDAVVAKEAWENHRLRNDSVIVDTFHGLFKSTLVCPECAKVSVTFDPFCYLTLPLPLKKDRVMEVFLVPADPHCRPTQYRVTVPLMGAVSDLCEALSRLSGIAAENMVVADVYNHRFHKIFQMDEGLNHIMPRDDIFVYEVCSTSVDGSECVTLPVYFRERKSRPSSTSSASALYGQPLLLSVPKHKLTLESLYQAVCDRISRYVKQPLPDEFGSSPLEPGACNGSRNSCEGEDEEEMEHQEEGKEQLSETEGSGEDEPGNDPSETTQKKIKGQPCPKRLFTFSLVNSYGTADINSLAADGKLLKLNSRSTLAMDWDSETRRLYYDEQESEAYEKHVSMLQPQKKKKTTVALRDCIELFTTMETLGEHDPWYCPNCKKHQQATKKFDLWSLPKILVVHLKRFSYNRYWRDKLDTVVEFPIRGLNMSEFVCNLSARPYVYDLIAVSNHYGAMGVGHYTAYAKNKLNGKWYYFDDSNVSLASEDQIVTKAAYVLFYQRRDD
With B1 as the binder, how does the koff [1] read?
Its koff is 0.045 s⁻¹.

And the koff [2]?
The koff was 0.49 s⁻¹.
